The text below walks through data of ChEMBL document CHEMBL3351619 (J Med Chem, 2014).

In this assay the test system is CHO-K1. Put plainly: Selectivity ratio of Ki for human 5-HT1A expressed in CHO-K1 cells to Ki for human 5-HT7 expressed in HEK-293 cells. Format: cell-based.

Some results are limits rather than exact numbers.

Consider `O=C1Cc2ccccc2N1CC/C=C/CCN1CCc2ccccc2C1`, for which the Ratio Ki is greater than 1430.
